From US10342767B2, “Therapy for kinase-dependent malignancies” (CHILDREN'S HOSPITAL MEDICAL CENTER, priority 2011, dated 2019)

Legend:
EGFR = conditions: NSCLC patients with activating EGFR mutations; cited from earlier work
[1] = tested on: Kit+ cells expressing FLT3ITD and MLLAF9; test: CFU assay of Kit+ cells expressing FLT3ITD and MLLAF9; format: cell-based, mouse; conditions: 5 nM of AC220
[2] = tested on: CD34 cells expressing FLT3ITD and MLLAF9; test: Humanized AML model (FLT3ITD:MLLAF9 cord blood CD34 cells), in vitro assay; format: cell-based, human; conditions: IL3, IL6, SCF and TPO

Row | Structure (SMILES) | response rate (EGFR) | response of CFUs to Flt3 TKI [1] | response to AC220 in the presence of GF [2]
1 | COc1cc2ncnc(Nc3ccc(F)c(Cl)c3)c2cc1OCCCN1CCOCC1 [gefitinib] | approximately 70% |  | 
2 | CC(C)(C)c1cc(NC(=O)Nc2ccc(-c3cn4c(n3)sc3cc(OCCN5CCOCC5)ccc34)cc2)no1 [AC220, quizartinib] |  | resistant | resistance
